# Source: patent publication US7745604B2, “Upstream control elements of the proopiomelanocortin gene and their use” (Oregon Health & Science University, priority 2001, dated 2010)
# The chains behind the UniProt entries cited, without tags or fusion partners.
# UniProt P42866, whole entry: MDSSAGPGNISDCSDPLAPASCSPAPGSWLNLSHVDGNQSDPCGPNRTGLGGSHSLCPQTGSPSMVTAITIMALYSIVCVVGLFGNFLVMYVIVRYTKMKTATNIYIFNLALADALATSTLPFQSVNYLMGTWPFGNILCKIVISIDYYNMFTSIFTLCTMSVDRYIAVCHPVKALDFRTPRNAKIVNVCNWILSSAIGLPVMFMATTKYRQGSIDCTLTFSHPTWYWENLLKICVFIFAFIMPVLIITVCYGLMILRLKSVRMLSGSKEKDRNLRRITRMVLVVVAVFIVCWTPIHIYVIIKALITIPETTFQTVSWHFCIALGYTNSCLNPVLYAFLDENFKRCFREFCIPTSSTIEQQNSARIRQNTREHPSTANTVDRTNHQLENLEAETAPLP
# Entries after “also recorded” stand apart in the source; their conditions may differ.
# Target: MOP-Rs on POMC neurons (Mus musculus, UniProt P42866)
substance,measurement,value
CTAP,effect on current induced by Met-Enk in POMC cells,Met-Enk elicited no current; also recorded: completely prevented the current induced by Met-Enk
